In publication PMC10009755, “Discovery and Characterization of BAY-805, a Potent and Selective Inhibitor of Ubiquitin-Specific Protease USP21” (Journal of Medicinal Chemistry, 2023):
Several values for one entry are separate records, joined by “and”; a condition that tells them apart may be missing. Equal values may be shown once.

Sequences of proteins named here, by UniProt entry; tags and fusion partners are left off. A change or cut given only in a name is not applied to a line headed by its entry. Residues count along the entry.
UniProt P51784: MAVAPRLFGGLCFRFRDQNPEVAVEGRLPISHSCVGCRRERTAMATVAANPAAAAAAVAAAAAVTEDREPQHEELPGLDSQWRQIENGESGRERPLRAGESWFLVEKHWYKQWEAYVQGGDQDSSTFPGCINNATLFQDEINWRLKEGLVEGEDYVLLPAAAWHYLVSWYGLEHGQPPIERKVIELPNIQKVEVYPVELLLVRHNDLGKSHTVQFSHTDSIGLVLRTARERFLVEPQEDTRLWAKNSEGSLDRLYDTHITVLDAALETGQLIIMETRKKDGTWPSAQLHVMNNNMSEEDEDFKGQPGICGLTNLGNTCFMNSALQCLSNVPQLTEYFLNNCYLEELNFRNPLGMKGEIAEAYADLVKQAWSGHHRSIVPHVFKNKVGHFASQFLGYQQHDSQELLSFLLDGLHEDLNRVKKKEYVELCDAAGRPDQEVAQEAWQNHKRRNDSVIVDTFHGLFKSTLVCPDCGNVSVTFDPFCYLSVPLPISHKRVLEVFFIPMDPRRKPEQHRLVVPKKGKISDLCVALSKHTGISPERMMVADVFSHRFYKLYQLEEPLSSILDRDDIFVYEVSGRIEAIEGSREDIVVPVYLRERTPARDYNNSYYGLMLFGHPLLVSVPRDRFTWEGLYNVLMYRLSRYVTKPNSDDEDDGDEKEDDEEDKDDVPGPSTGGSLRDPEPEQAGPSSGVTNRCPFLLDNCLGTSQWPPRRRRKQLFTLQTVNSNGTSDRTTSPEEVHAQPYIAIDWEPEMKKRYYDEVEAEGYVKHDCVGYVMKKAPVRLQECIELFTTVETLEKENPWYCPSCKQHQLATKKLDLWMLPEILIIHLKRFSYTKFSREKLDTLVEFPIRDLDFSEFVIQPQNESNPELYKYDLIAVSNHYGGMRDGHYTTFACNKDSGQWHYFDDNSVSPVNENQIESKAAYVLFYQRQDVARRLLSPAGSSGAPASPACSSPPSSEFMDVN
UniProt Q9NQC7: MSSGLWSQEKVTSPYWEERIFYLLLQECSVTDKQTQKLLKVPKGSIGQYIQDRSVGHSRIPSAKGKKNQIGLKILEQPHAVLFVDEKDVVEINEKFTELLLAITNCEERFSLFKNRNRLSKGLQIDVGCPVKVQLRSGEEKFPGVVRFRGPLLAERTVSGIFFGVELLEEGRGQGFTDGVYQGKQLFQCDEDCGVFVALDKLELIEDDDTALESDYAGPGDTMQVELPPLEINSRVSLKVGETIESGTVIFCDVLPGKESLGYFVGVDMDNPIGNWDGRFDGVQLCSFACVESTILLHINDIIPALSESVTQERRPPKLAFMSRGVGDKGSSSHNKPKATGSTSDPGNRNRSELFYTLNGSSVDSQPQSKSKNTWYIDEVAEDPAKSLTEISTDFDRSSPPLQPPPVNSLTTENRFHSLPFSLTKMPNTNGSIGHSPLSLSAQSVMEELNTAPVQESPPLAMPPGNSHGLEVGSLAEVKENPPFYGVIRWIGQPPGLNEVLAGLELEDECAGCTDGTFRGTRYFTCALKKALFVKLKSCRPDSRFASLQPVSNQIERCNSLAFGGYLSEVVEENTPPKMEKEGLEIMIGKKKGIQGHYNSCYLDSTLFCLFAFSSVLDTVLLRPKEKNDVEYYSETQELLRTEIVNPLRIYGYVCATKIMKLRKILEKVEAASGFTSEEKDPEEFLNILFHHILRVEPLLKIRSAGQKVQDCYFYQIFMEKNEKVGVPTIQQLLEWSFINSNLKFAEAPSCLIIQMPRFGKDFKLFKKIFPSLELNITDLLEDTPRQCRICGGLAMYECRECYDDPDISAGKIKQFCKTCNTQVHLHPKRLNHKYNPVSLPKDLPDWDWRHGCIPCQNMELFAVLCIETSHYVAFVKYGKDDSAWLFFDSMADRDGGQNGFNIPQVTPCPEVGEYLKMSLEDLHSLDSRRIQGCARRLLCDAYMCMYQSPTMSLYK
UniProt P09936: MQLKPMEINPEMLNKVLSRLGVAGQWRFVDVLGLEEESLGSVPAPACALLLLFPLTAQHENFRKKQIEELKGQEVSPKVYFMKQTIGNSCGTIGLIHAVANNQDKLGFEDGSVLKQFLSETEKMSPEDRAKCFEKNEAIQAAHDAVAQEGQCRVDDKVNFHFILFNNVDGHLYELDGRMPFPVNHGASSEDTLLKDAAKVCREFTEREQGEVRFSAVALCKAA
UniProt Q8N6M0: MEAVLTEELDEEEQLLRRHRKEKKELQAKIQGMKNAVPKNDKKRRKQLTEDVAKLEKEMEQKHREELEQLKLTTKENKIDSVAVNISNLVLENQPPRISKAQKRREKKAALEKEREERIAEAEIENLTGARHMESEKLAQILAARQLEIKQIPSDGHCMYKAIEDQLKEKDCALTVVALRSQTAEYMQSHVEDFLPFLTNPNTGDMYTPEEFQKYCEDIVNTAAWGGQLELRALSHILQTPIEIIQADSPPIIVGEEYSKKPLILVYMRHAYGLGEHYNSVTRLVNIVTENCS
UniProt Q13555: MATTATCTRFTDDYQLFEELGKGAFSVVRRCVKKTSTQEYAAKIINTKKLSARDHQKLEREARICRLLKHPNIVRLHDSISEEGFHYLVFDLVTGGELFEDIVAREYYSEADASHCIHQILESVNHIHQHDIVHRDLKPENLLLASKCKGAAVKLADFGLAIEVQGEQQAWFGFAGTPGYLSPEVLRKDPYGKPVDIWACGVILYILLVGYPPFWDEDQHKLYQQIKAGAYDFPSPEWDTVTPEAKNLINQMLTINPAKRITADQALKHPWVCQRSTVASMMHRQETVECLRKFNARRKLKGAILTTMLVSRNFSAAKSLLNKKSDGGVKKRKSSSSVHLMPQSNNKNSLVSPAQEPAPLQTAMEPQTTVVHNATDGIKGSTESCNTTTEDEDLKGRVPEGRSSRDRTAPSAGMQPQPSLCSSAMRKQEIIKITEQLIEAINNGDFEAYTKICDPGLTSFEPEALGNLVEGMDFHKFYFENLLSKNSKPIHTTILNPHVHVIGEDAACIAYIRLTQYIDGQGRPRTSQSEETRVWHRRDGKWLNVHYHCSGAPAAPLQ
UniProt Q92630: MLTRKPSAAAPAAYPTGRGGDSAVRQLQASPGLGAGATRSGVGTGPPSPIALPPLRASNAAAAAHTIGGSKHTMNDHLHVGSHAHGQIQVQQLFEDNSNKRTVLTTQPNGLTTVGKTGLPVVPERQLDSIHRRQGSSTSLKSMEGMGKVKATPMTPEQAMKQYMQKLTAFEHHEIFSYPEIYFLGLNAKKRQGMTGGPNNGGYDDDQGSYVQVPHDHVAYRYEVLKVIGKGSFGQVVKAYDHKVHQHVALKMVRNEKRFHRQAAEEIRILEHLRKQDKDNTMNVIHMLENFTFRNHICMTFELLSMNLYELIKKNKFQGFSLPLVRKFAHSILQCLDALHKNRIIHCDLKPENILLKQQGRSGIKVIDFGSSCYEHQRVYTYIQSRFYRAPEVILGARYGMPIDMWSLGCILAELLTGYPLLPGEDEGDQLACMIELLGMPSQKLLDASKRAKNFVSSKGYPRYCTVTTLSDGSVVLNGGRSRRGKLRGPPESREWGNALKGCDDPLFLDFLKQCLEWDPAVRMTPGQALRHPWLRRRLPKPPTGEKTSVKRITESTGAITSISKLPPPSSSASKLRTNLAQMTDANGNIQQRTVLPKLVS
UniProt P54764, 20-986: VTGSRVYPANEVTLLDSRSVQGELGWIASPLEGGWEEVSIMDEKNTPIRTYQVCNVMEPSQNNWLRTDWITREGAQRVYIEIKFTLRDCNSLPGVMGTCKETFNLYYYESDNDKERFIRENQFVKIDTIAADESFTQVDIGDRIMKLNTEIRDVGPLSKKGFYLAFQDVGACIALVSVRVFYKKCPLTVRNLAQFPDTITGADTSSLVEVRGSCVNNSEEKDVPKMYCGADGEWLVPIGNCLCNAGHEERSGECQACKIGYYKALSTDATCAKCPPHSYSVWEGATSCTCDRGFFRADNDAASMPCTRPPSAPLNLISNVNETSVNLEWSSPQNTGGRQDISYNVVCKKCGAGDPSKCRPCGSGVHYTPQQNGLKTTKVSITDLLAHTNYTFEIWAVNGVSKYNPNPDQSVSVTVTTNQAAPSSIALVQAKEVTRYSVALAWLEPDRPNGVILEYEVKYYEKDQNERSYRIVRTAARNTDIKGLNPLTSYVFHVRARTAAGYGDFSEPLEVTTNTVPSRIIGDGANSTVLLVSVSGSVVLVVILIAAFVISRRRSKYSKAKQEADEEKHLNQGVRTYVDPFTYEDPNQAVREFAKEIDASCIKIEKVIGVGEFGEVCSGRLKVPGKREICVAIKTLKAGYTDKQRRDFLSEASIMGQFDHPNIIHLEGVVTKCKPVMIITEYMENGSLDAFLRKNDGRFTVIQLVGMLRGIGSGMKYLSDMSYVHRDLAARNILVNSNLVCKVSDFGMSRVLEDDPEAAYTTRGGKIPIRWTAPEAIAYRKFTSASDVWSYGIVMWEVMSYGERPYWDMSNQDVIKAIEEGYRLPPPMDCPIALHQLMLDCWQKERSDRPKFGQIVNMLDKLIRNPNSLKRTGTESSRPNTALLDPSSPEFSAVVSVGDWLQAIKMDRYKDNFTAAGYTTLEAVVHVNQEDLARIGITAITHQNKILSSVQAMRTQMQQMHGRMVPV
UniProt Q13976: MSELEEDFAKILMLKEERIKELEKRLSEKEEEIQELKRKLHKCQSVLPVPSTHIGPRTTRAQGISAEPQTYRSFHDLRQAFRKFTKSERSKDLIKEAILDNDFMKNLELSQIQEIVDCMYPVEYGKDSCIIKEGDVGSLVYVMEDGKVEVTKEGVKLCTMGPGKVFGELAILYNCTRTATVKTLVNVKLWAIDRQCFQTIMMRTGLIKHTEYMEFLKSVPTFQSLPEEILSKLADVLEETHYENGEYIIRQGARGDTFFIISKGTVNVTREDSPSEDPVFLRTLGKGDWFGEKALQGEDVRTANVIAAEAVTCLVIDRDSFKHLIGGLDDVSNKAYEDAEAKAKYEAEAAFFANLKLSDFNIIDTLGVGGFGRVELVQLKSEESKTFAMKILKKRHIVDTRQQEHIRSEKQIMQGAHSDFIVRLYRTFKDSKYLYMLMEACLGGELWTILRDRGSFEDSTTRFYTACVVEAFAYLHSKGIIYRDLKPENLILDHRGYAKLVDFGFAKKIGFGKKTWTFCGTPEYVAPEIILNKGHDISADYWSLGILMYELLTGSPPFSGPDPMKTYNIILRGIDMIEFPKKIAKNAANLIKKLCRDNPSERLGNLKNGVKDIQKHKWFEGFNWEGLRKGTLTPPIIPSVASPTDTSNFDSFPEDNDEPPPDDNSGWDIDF
UniProt O15264: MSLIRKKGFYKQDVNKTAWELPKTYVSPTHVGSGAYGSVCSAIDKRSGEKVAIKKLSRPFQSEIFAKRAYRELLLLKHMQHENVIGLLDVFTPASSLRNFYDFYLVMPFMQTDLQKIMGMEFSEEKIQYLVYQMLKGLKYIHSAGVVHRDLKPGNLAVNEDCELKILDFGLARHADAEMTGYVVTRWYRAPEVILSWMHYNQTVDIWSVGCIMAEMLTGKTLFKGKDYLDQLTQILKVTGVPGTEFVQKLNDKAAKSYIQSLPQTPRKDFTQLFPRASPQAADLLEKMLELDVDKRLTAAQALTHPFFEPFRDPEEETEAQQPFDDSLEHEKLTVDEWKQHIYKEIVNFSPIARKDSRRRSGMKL
UniProt O00506, whole entry: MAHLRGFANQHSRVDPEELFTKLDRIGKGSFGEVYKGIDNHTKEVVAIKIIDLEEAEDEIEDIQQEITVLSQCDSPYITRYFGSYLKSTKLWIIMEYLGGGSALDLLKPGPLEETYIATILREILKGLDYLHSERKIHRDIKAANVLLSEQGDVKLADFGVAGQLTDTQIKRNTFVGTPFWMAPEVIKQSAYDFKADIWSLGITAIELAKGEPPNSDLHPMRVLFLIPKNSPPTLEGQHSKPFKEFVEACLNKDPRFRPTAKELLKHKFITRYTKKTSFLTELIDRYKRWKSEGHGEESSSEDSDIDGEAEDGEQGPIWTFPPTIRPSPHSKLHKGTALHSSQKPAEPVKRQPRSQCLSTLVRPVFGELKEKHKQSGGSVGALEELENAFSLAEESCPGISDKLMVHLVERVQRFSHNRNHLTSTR
UniProt Q96G74: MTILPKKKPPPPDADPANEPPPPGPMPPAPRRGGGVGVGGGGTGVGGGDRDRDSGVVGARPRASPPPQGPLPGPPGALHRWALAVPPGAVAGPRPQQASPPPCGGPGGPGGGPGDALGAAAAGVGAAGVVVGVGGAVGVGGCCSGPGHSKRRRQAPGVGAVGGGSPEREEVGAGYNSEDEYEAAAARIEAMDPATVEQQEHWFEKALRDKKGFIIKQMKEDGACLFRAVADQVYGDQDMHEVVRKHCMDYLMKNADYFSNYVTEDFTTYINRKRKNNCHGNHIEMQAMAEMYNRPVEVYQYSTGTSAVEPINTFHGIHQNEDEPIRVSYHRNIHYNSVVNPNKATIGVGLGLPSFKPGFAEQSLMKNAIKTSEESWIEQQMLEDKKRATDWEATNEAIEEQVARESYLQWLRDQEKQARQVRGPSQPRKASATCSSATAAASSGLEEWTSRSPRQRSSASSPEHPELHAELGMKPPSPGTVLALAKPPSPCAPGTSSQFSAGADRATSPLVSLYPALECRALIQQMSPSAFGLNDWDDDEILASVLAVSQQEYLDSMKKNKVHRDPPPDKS

Columns and labels:
[1] = target: USP5 (Homo sapiens, UniProt P45974); assay: biochemical; conditions: read-out: Activity (% Control)
[2] = target: USP11 (Homo sapiens, UniProt P51784); assay: biochemical; conditions: read-out: Activity (% Control)
[3] = target: USP25 (Homo sapiens, UniProt Q9UHP3); assay: biochemical; conditions: read-out: Activity (% Control)
[4] = target: USP27x (Homo sapiens, UniProt A6NNY8); assay: biochemical; conditions: read-out: Activity (% Control)
[5] = target: USP45 (Homo sapiens, UniProt Q70EL2); assay: biochemical; conditions: read-out: Activity (% Control)
[6] = target: CYLD (Homo sapiens, UniProt Q9NQC7); assay: biochemical; conditions: read-out: Activity (% Control)
[7] = target: UCHL1 (Homo sapiens, UniProt P09936); assay: biochemical; conditions: read-out: Activity (% Control)
[8] = target: OTUD6B (Homo sapiens, UniProt Q8N6M0); assay: biochemical; conditions: read-out: Activity (% Control)
[9] = target: Adrenergic β1 (Homo sapiens, UniProt P08588); assay: biochemical; conditions: read-out: % Inh.
[10] = target: Transporter, Dopamine (DAT) (Homo sapiens, UniProt Q01959); assay: biochemical; conditions: read-out: % Inh.
[11] = target: CaMKIIgamma(h) (Homo sapiens, UniProt Q13555); assay: biochemical
[12] = target: DYRK2(h) (Homo sapiens, UniProt Q92630); assay: biochemical
[13] = target: EphA4(h) (Homo sapiens, UniProt P54764); assay: biochemical
[14] = target: ErbB2(h) (Homo sapiens, UniProt P04626); assay: biochemical
[15] = target: Fyn(h) (Homo sapiens, UniProt P06241); assay: biochemical
[16] = target: HRI(h) (Homo sapiens, UniProt Q9BQI3); assay: biochemical
[17] = target: MAP4K5(h) (Homo sapiens, UniProt Q9Y4K4); assay: biochemical
[18] = target: MOK(h) (Homo sapiens, UniProt Q9UQ07); assay: biochemical
[19] = target: MSK1(h) (Homo sapiens, UniProt O75582); assay: biochemical
[20] = target: NEK9(h) (Homo sapiens, UniProt Q8TD19); assay: biochemical
[21] = target: PKCbetaII(h) (Homo sapiens, UniProt P05771); assay: biochemical
[22] = target: PKG1alpha(h) (Homo sapiens, UniProt Q13976); assay: biochemical
[23] = target: Plk3(h) (Homo sapiens, UniProt Q9H4B4); assay: biochemical
[24] = target: Rsk4(h) (Homo sapiens, UniProt Q9UK32); assay: biochemical
[25] = target: SAPK4(h) (Homo sapiens, UniProt O15264); assay: biochemical
[26] = target: SGK2(h) (Homo sapiens, UniProt Q9HBY8); assay: biochemical
[27] = target: SRPK2(h) (Homo sapiens, UniProt P78362); assay: biochemical
[28] = target: STK25(h) (Homo sapiens, UniProt O00506); assay: biochemical
[29] = target: TAK1(h) (Homo sapiens, UniProt O43318); assay: biochemical
[30] = target: PI3 Kinase (p110b/p85a)(h) (Homo sapiens, UniProt P42338); conditions: 10 µM; listed as BAY-805, 10 µM
[31] = target: T1, PI3 Kinase (p110d/p85a)(h) (Homo sapiens, UniProt O00329); conditions: 10 µM
[32] = target: T2, PI3 Kinase (p120g)(h) (Homo sapiens, UniProt P48736); conditions: 10 µM
[33] = target: T3, PI3KC2a(h) (Homo sapiens, UniProt O00443); conditions: 10 µM
[34] = target: USP1/UAF1 (Homo sapiens, UniProt O94782); assay: biochemical; conditions: read-out: Activity (% Control)
[35] = target: OTUD5 (p117S) (Homo sapiens, UniProt Q96G74); assay: biochemical; conditions: read-out: Activity (% Control)
[36] = target: AMSH-LP (+Zinc) (Homo sapiens, UniProt Q96FJ0); assay: biochemical; conditions: read-out: Activity (% Control)
[37] = target: T1, PI3 Kinase (p110d/p85a)(h); assay: biochemical
[38] = target: T2, PI3 Kinase (p120g)(h); assay: biochemical
[39] = target: T3, PI3KC2a(h); assay: biochemical

| Compound | remaining activity at 1 µM [4] [%] | remaining activity at 10 µM [4] [%] | remaining activity at 1 µM [6] [%] | remaining activity at 10 µM [6] [%] | remaining activity at 1 µM [8] [%] | remaining activity at 10 µM [8] [%] | inhibition at 10 µM [9] [%] | inhibition at 10 µM [10] [%] | inhibition at 10 µM [11] [%] | inhibition at 10 µM [12] [%] | inhibition at 10 µM [13] [%] | inhibition at 10 µM [14] [%] | inhibition at 10 µM [15] [%] | inhibition at 10 µM [16] [%] | inhibition at 10 µM [17] [%] | inhibition at 10 µM [18] [%] | inhibition at 10 µM [19] [%] | inhibition at 10 µM [20] [%] | inhibition at 10 µM [21] [%] | inhibition at 10 µM [22] [%] | further results |
| --- | --- | --- | --- | --- | --- | --- | --- | --- | --- | --- | --- | --- | --- | --- | --- | --- | --- | --- | --- | --- | --- |
| CC(C)C[C@H](NC(=O)C1(C(F)(F)F)CCCCC1)C(=O)Nc1nnc(Cc2ccc(C#N)cc2)s1 [Compound 22, CC(C)C[C@H](NC(=O)C1(CCCCC1)C(F)(F)F)C(=O)Nc2nnc(Cc3ccc(cc3)C#N)s2] | 103 | 96 | 96 | 100 | 94 | 100 | 4 | 41 | 2.22 | -1.89 | 9.3 | -8.06 | 1.56 | -10.7 | -3.65 | 14.9 | 6.97 | -1.19 | 0.91 | 7.5 | remaining activity at 1 µM [1]: 104%; remaining activity at 10 µM [1]: 105%; remaining activity at 1 µM [2]: 99%; remaining activity at 10 µM [2]: 102%; remaining activity at 1 µM [3]: 105%; remaining activity at 10 µM [3]: 105%; remaining activity at 1 µM [5]: 94%; remaining activity at 10 µM [5]: 98%; remaining activity at 1 µM [7]: 100%; remaining activity at 10 µM [7]: 103%; inhibition at 10 µM [23]: -17.4%; inhibition at 10 µM [24]: 4.56%; inhibition at 10 µM [25]: 0.28%; inhibition at 10 µM [26]: -5.61%; inhibition at 10 µM [27]: 0.9%; inhibition at 10 µM [28]: 20%; inhibition at 10 µM [29]: -8.54% |
| CC(C)C[C@@H](NC(=O)C1(C(F)(F)F)CCCCC1)C(=O)Nc1nnc(Cc2ccc(C#N)cc2)s1 [Compound 21, N-[(1R)-1-[[5-[(4-Cyanophenyl)methyl]-1,3,4-thiadiazol-2-yl]carbamoyl]-3-methyl-butyl]-1-(trifluoromethyl)cyclohexanecarboxamide] | 105 | 108 | 105 | 102 | 104 | 92 | 3 | 9 | 5.77 | 4.51 | 5.39 | -7.69 | -2.08 | -14.5 | -2.39 | 7.14 | 6.32 | 2.31 | 0.32 | 14.7 | Inhibition [30]: 7.43% and 15.38%; Inhibition [31]: 21; Inhibition [32]: 3.07; Inhibition [33]: 5.4; remaining activity at 1 µM [34]: 117%; remaining activity at 10 µM [34]: 111%; remaining activity at 1 µM [35]: 102%; remaining activity at 10 µM [35]: 90%; remaining activity at 1 µM [36]: 99%; remaining activity at 10 µM [36]: 93%; inhibition at 10 µM [23]: -8.23%; inhibition at 10 µM [24]: 9.03%; inhibition at 10 µM [25]: -2.62%; inhibition at 10 µM [26]: 6.44%; inhibition at 10 µM [27]: 9.6%; inhibition at 10 µM [28]: 12.2%; inhibition at 10 µM [29]: -6.84%; inhibition at 10 µM [37]: 13.1%; inhibition at 10 µM [38]: 2.58%; inhibition at 10 µM [39]: 7.47% |
